From US20150366877A1, “METHODS OF TREATMENT OF HUMAN CYTOMEGALOVIRUS INFECTION AND DISEASES WITH BROMODOMAIN INHIBITORS” (Washington University, priority 2013, published 2015)

Experiments:
[1] = tested on: HCMV clinical strain TR-GFP; test: microbe, parasite or virus in culture; format: cell-based, Human cytomegalovirus; conditions: Human betaherpesvirus 5, HFF
Protocol: (§1) Drug effects were calculated as a percentage of reduction in GFPU in the presence of each drug concentration comported to the GFPU determined in the absence of drug. The dose-response curves were calculated using the GraphPad Prism 6 (GraphPad Software, USA),
(§2) In these experiments, the inventors determined the IC50 and IC90 values of respective BET bromodomain inhibitors against HCMV infection using fluorescence reduction assay (FIG. 9; Table 3) s.

[2] = tested on: HCMV laboratory strain AD169-GFP; test: microbe, parasite or virus in culture; format: cell-based, Human cytomegalovirus; conditions: Human betaherpesvirus 5, AD169, HFF
Protocol: as §1, §2

Compound	IC50 [1] [µM]	IC90 [1] [µM]	IC50 [2] [µM]	IC90 [2] [µM]
CCNC(=O)C[C@@H]1N=C(c2ccc(Cl)cc2)c2cc(OC)ccc2-n2c(C)nnc21 [I-BET762, 2-[(4S)-6-(4-chlorophenyl)-8-methoxy-1-methyl-4H-[1,2,4]triazolo[4,3-a][1,4]benzodiazepine-4-yl]-N-ethylacetamide]	0.14	0.22	0.21	3.72
CCNC(=O)C[C@H]1N=C(c2ccc(Cl)cc2)c2cc(OC)ccc2-n2c(C)nnc21 [I-BET768]	13.4	24.6	403	–
